Details in all cases: actives raise or lower the signal; primary human HUVEC with PBMC
Read-out in assay [1]: Monocyte Chemoattractant Protein-1 (MCP1), CCL2 (gene 6347)
Briefly: BSK_LPS_MCP1: BioMAP Diversity Plus: LPS Assay for Monocyte Chemoattractant Protein-1 (MCP1) Biomarker Activity (AID 2283081). The method in brief:
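Human endothelial–PBMC co-cultures were dosed with chemical, then LPS-driven MCP-1 levels were quantified by ELISA at 24 h. Activity in either direction was fitted versus DMSO negative control.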

Protein sequences, listed by entry. Tags and fused reporters are not part of them.
UniProt P01375, whole entry: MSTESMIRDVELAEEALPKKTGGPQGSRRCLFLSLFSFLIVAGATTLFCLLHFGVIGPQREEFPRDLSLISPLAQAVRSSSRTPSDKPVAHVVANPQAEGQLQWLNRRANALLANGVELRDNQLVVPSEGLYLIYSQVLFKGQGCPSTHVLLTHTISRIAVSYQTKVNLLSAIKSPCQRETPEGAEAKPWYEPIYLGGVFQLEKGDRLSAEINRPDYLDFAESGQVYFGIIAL

Assay [2] in a line: BSK_LPS_PGE2: BioMAP Diversity Plus: LPS Assay for Prostaglandin E2 (PGE2) Biomarker Activity (AID 2283082). On the procedure:
BSK_LPS is a cell-based, multiplexed-readout assay that uses umbilical vein endothelium and peripheral blood mononuclear cells, a human vascular primary cell co-culture, with measurements taken at 24 hours after chemical dosing in a 96-well plate.BSK_LPS_PGE2 is an assay component measured in the BSK_LPS assay. It measures PGE2 antibody related to regulation of gene expression using ELISA technology.Data from the assay component BSK_LPS_PGE2 was analyzed into 1 assay endpoint. This assay endpoint, BSK_LPS_PGE2, was analyzed with bidirectional fitting relative to DMSO as the negative control and baseline of activity. Using a type of binding reporter, gain or loss-of-signal activity can be used to understand changes in the signaling as they relate to the gene PTGER2. Furthermore, this assay endpoint can be referred to as a primary readout, because this assay has produced multiple assay endpoints where this one serves a signaling function. To generalize the intended target to other relatable targets, this assay endpoint is annotated to the gpcr intended target family, where the subfamily is rhodopsin-like receptor.
(§1) The levels of cell surface (or secreted, indicated by the prefix "s") biomarker endpoints were measured by ELISA. Overt cytotoxicity to cells in confluent adherent cultures (all systems other than the BT system) was assessed by measuring total protein levels using sulforhodamine B (SRB) staining in parallel cultures at the time of biomarker measurements, indicated as SRB endpoints. For proliferation assays for adherent cell types, individual cell types are cultured at sub-confluence and relative cell numbers quantified by SRB staining at time points optimized for each system (48 h: 3C and CASM3C systems; 72 h: BT and HDF3CGF systems; 96 h: SAg system). SRB was performed by staining cells with 0.1% SRB after fixation with 10% TCA and reading wells at 560 nm.Viability and proliferation of PBMC (T cells) was quantified by Alamar Blue reduction for the SAg and BT systems. For PBMC viability (referred to as PBMC Cytotoxicity within the assay endpoint names), cells were plated (75,000/well in a 96-well plate) and then chemical samples added for 1 h before addition of activators, SEB and TSST-1 (20 ng/mL final concentration each). Cells were incubated for 90 h. Then, Alamar Blue (20 uL/well) (Invitrogen, Cat DAL1100) was added for 6 h, and the plates were read with a fluorescence microplate reader at 546/580 nm (excitation/emission). For PBMC proliferation, cells were plated and activated as above but incubated for only 16 h prior to addition of Alamar Blue. Plates were read after 6 h.

Read-out in assay [3]: Macrophage colony-stimulating factor (MCSF), CSF1 (gene 1435)
The experiment in a line: BSK_LPS_MCSF: BioMAP Diversity Plus: LPS Assay for Macrophage colony-stimulating factor (MCSF) Biomarker Activity (AID 2283083). Here is the method: (§2) BSK_LPS is a cell-based, multiplexed-readout assay that uses umbilical vein endothelium and peripheral blood mononuclear cells, a human vascular primary cell co-culture, with measurements taken at 24 hours after chemical dosing in a 96-well plate.BSK_LPS_MCSF is an assay component measured in the BSK_LPS assay. It measures M-CSF antibody related to regulation of gene expression using ELISA technology.Data from the assay component BSK_LPS_MCSF was analyzed into 1 assay endpoint. This assay endpoint, BSK_LPS_MCSF, was analyzed with bidirectional fitting relative to DMSO as the negative control and baseline of activity. Using a type of binding reporter, gain or loss-of-signal activity can be used to understand changes in the signaling as they relate to the gene CSF1. Furthermore, this assay endpoint can be referred to as a primary readout, because this assay has produced multiple assay endpoints where this one serves a signaling function. To generalize the intended target to other relatable targets, this assay endpoint is annotated to the cytokine intended target family, where the subfamily is colony stimulating factor.
as §1

Read-out in assay [4]: Tissue Factor, F3 (gene 2152)
Briefly: BSK_LPS_TissueFactor: BioMAP Diversity Plus: LPS Assay for Tissue Factor Biomarker Activity (AID 2283084). On the procedure:
as §2, with “plate.BSK_LPS_TissueFactor” for “plate.BSK_LPS_MCSF”, “CD142 Tissue Factor” for “M-CSF”, “BSK_LPS_TissueFactor” for “BSK_LPS_MCSF”, “BSK_LPS_TissueFactor,” for “BSK_LPS_MCSF,”, “F3.” for “CSF1.”, “coagulation” for “colony stimulating”
as §1

Read-out in assay [5]: Tumor necrosis factor (Homo sapiens) (UniProt P01375)
Briefly: BSK_LPS_TNFa: BioMAP Diversity Plus: LPS Assay for Tumour Necrosis Factor alpha (TNFa) Biomarker Activity (AID 2283085). Here is the method:
as §2, with “plate.BSK_LPS_TNFa” for “plate.BSK_LPS_MCSF”, “TNF-a” for “M-CSF”, “BSK_LPS_TNFa” for “BSK_LPS_MCSF”, “BSK_LPS_TNFa,” for “BSK_LPS_MCSF,”, “TNF.” for “CSF1.”, “inflammatory” for “colony stimulating”
as §1

Read-out in assay [6]: Vascular cell adhesion molecule 1 (VCAM1), VCAM1 (gene 7412)
Briefly: BSK_LPS_VCAM1: BioMAP Diversity Plus: LPS Assay for Vascular cell adhesion molecule 1 (VCAM1) Biomarker Activity (AID 2283086). The gist of the method: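 Primary human vascular co-culture (umbilical vein endothelium plus PBMC) stimulated with LPS received chemical; 24 h later VCAM-1 was read by ELISA. Overt cytotoxicity was assessed by sulforhodamine B staining of parallel cultures at the same time point.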

Read-out in assay [7]: CD38, CD38 (gene 952)
Briefly: BSK_SAg_CD38: BioMAP Diversity Plus: SAg Assay for CD38 Biomarker Activity (AID 2283087). The gist of the method:
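Fluorescence ELISA of cell-surface CD38 served as the read-out, with either increase or decrease fitted against DMSO controls. Cells were a human umbilical vein endothelium plus PBMC co-culture under SEB/TSST-1 stimulation, measured 24 h after dosing.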

Read-out in assay [8]: CD40, CD40 (gene 958)
Briefly: BSK_SAg_CD40: BioMAP Diversity Plus: SAg Assay for CD40 Biomarker Activity (AID 2283088). The method in brief:
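Compounds were dosed onto a human primary endothelial–PBMC co-culture, and after 24 h CD40 was quantified by ELISA using a fluorescence signal. Activity in either direction was fitted relative to DMSO.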

Read-out in assay [9]: CD69, CD69 (gene 969)
Briefly: BSK_SAg_CD69: BioMAP Diversity Plus: SAg Assay for CD69 Biomarker Activity (AID 2283089).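 As to AC50: cell surface CD69 protein quantified by ELISA with fluorescence detection.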 The method in brief:
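Primary human vascular co-culture (umbilical vein endothelium with peripheral blood mononuclear cells) exposed to test chemical for 24 h. CD69 levels quantified by fluorescence ELISA; DMSO served as negative control for bidirectional fitting.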

Read-out in assay [10]: Monocyte Chemoattractant Protein-1 (MCP1), CCL2 (gene 6347)
Briefly: BSK_SAg_MCP1: BioMAP Diversity Plus: SAg Assay for Monocyte Chemoattractant Protein-1 (MCP1) Biomarker Activity (AID 2283090). The method in brief:
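MCP-1 levels in the endothelial–PBMC SAg co-culture were quantified by ELISA at 24 h post-dosing; both increases and decreases versus DMSO scored. Cytotoxicity monitored by SRB total protein in parallel cultures.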

This is a selection; strong and weak results do not stand in their true shares. Activity calls are given as the source filed them. The calls were made as follows: active = hit-call score of the fitted dose curve at least 0.9, where 1 is the maximum; inactive = score below 0.9.

For orientation: AC50 means the concentration giving half of the maximal activity seen.

As to `Cc1c([N+](=O)[O-])cccc1[N+](=O)[O-]`, the outcome in assay [1], in [2], in [3], in assay [4], in assay [5] and in [6] was inactive. Moreover, the outcome in [7], in assay [8], in assay [9] and in assay [10] was inactive.
`O=[N+]([O-])c1cccc([N+](=O)[O-])c1`: the outcome in [1], in assay [2], in assay [3], in [4], in [5] and in assay [6] was inactive. The result in assay [7], in assay [8], in assay [9] and in assay [10] was inactive.
With `Cc1ccc([N+](=O)[O-])c([N+](=O)[O-])c1`, the result in assay [1], in assay [2], in [3], in [7] and in assay [8] was inactive. Also, the AC50 in [4] was active: 10.8 µM; in assay [5], active: 31.8 µM; in [6] it was active: 20 µM; in [9], active: 6.68 µM; in assay [10] it was active: 12.7 µM.
As to `Cc1cccc([N+](=O)[O-])c1[N+](=O)[O-]`, the result in assay [1], in [2], in assay [3], in assay [4], in assay [7] and in assay [8] was inactive. Moreover, the result in assay [9] and in assay [10] was inactive. Moreover, the AC50 was active: 2.84 µM in [5] and active: 7.83 µM in [6].
`Cc1ccc([N+](=O)[O-])cc1[N+](=O)[O-]`: the outcome in assay [1], in assay [2], in assay [3], in assay [4], in assay [5] and in assay [6] was inactive. Besides, the result in [7], in assay [8], in [9] and in assay [10] was inactive.
With `CC(C)OP(C)(=O)OC(C)C`, the outcome in assay [1], in assay [2], in [3], in [4], in assay [5] and in assay [6] was inactive. Besides, the outcome in assay [7], in assay [8], in assay [9] and in assay [10] was inactive.

The values are drawn from PubChem BioAssay (EPA / NIEHS).
